For experiment [1], the target named is T1, 11β-hsd-1 enzyme (Homo sapiens, UniProt P28845). Put plainly: biochemical. Conditions: read-out: % Inh @ 0.1 μM. On the procedure: Percentage of inhibition was determined in a 100 mM Triethanolamine buffer, pH 8.0, 200 mM NaCl, 0.02% n-dodecyl β-D-maltoside and 5 mM β-ME. A typical reaction was carried on a Corning® u-bottom 96-well plate and is described as follows: 11β-hsd-1 enzyme (5 nM, final concentration) was pre-incubated in the presence of the inhibitor and NADPH (500 μM, final concentration) for at least 30 minutes
in the assay buffer. When pre-incubation was completed, the reaction was initiated by adding the regenerating system (2 mM Glucose-6-Phosphate, 1U/mL Glucose-6-Phosphate dehydrogenase, and 6 mM MgCl2, all the concentration reported are final in the assay buffer), and 3H-cortisone (200 nM, final concentration). After 60 minutes, 60 μL of the assay mixture was transferred to a second 96-well plate and mixed with an equal volume of dimethylsulfoxide to stop the reaction. A 15 μL aliquot from the reaction mixture was loaded into a C-18 column (Polaris C18-A, 50×4.6 mm, 5 μ, 180 Angstrom from Varian) connected to an automated High-throughput Liquid Chromatography instrument developed by Cohesive Technologies Inc of Franklin, Mass., with a […] model 3 Radio-HPLC detector from IN/US of Tampa, Fla. […]
Percent Inhibition was calculated based on the following equation: (1-(3H-Cortisol peak area in the […] of inhibitor)×100).

Chains of the proteins cited; added tags and fusions are not shown.
UniProt P28845, whole entry, species assumed: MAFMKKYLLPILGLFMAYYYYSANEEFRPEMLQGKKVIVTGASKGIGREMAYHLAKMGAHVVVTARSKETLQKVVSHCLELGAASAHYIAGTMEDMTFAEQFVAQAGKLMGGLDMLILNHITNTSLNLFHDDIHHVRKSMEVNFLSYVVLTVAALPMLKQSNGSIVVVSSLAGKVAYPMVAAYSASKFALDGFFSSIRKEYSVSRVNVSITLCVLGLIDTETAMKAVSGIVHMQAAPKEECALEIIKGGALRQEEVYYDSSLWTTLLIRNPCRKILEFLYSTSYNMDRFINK

The target of experiment [2] is T1, 11β-hsd-1 enzyme. Put plainly: biochemical. On the procedure: The 11β-hsd-1 assay was performed in a 100 mM Triethanolamine buffer pH 8.0, containing 200 mM NaCl, 0.02% n-dodecyl β-D-maltoside, 5% glycerol, 5 mM β-mercaptoethanol. A typical reaction for the determination of Kiapp values was carried at R.T. in a Corning® u-bottom 96-well plate and is described as follows: 11β-hsd-1 enzyme (5 nM, final concentration) was pre-incubated in the presence of the inhibitor and NADPH (500 μM, final concentration) for at least 30 minutes in the assay buffer. When pre-incubation was completed, the reaction was initiated by adding the regenerating system (2 mM Glucose-6-Phosphate, 1U/mL Glucose-6-Phosphate dehydrogenase, and 6 mM MgCl2, all the concentration reported are final in the assay buffer), and 3H-cortisone (200 nM, final concentration). After 60 minutes, 60 μL of the assay mixture was transferred to a second 96-well plate and mixed with an equal volume of dimethylsulfoxide to stop the reaction. […]
The initial reaction velocities were measured by stopping the reaction at 60 min and by measuring the area of product formation in the absence and the presence of various concentrations of inhibitors. The Kiapp values were determined using the equation for tight-binding inhibitor developed by Morrison, J. F. (Morrison J. F. Biochim BiophysActa. 1969; 185: 269-86). […]

As usually defined, the Ki is the equilibrium dissociation constant of an inhibitor or competing ligand from its target.

In the case of `Cc1cccc(NS(=O)(=O)N2CCN(c3ccc(C#N)cn3)CC2)n1` [Example 2, 4-(5-cyanopyridin-2-yl)-N-(6-methylpyridin-2-yl)piperazine-1-sulfonamide], the inhibition at 0.1 µM on 11β-hsd-1 enzyme [1] was found to be 100%. This molecule also came in with a Ki on 11β-hsd-1 enzyme [2] of 17.4 nM.

For the molecule `N#Cc1ccc(N2CCN(S(=O)(=O)Nc3cccc(N)n3)CC2)nc1` [Example 19, N-(6-aminopyridin-2-yl)-4-(5-cyanopyridin-2-yl)piperazine-1-sulfonamide], the inhibition at 0.1 µM on 11β-hsd-1 enzyme [1] is 96.9%. In addition, the Ki at 11β-hsd-1 enzyme [2] is 2.2 nM.

For the origin of these results see US20070027118A1 (priority 2005, published 2007).
